# Results: patent US20130171073A1 (CEDARS-SINAI MEDICAL CENTER, priority 2010, published 2013)
# System: AtT20 corticotroph tumor xenografts
# Assay: Plasma ACTH and serum corticosterone in AtT20 xenograft-bearing nude mice
# Conditions: 150 mg/kg oral gavage twice daily, three weeks, n=13-14
smiles,measurement,setting,value
CC[C@H](CO)Nc1nc(NCc2ccccc2)c2ncn(C(C)C)c2n1 [R-roscovitine],serum corticosterone levels (mean±S.E.),vehicle 1046±109 ng/ml,561 ± 72 ng/mL
same,plasma ACTH levels (mean±S.E.),vehicle 1256±596 pg/ml,596 ± 103 pg/mL
